Literature values as cited in patent publication US4937245A, “Bisphenylalkylpiperazine derivatives, a method of their preparation and a pharmaceutical preparation” (priority 1987, dated 1990).

Tested on: 5-HT2 binding site
Conditions: background statement on known drugs; cited from earlier work

CN(C)CCC=C1c2ccccc2CCc2ccccc21 [amitriptyline]
5HT2 blocking potency / binding site preference: potent 5HT2 -blockers
